This is an account of results in patent publication US9572347B2, “Method for inactivating a virus” (THE UNIVERSITY OF TOKYO, priority 2009, dated 2017).

The subject of one assay is Qβ phage (NBRC 20012). The assay can be described thus: phage inactivation ability test on sample-coated glass plate (Example 1 method). It counts as cell-based.
Assay [1] relates to phage. The assay can be described thus: virus inactivation action in a dry state (low humidity). The note with it: Cu2O 0.08 g/m^2. It counts as cell-based. An excerpt:
The evaluation of the virus inactivation action performed in Example 1 and the like utilized the evaluation system comprising filter paper containing water, and accordingly, the humidity at the time of the evaluation was about 80% or higher. It is known that activity of viruses generally becomes low at high humidity, and the activity becomes high at low humidity. Therefore, it was studied whether the agent for virus inactivation of the present invention successfully maintains the high activity even under low humidity conditions.

Assay [2] has as its system phage. The assay can be described thus: virus inactivation in the presence of an organic substance (gelatin). It counts as cell-based. As to the method:
After a predetermined time passed, phage concentration of each sample was measured.
The phage concentration was measured by the following method. Each sample was immersed in 10 mL of a recovery solution (SM buffer), and shaken for 10 minutes on a shaking machine. This phage recovery solution was appropriately diluted, and mixed with a culture medium of Escherichia coli (NBRC 13965) separately cultured (0D600>1.0, 1×10^8 CFU/mL), and the mixture was stirred, and left standing in an incubator at 37° C. for 10 minutes, so that Escherichia coli was infected with the phage. This mixture was inoculated on an agar medium, culture was performed at 37° C. for 15 hours, and then the number of phage plaques was visually counted. The resulting number of plaques was multiplied with the dilution times of the phage recovery solution to obtain the phage concentration.

The test system of another assay is phages. The assay can be described thus: persistent virus inactivation on repeated exposure to phages in water. It counts as cell-based. As to the method:
The same experiment system was also placed in a dark place. After about 24 hours, the phage solution was sampled, and phage concentration was determined. […] After the sampling, phages were added again, the phage solution was sampled after about 24 hours, and the phage concentration was determined in a similar manner.

The test system of assay [3] is methicillin-resistant Staphylococcus aureus (MRSA), Escherichia coli, and Pseudomonas aeruginosa. The following applies: Int. J. Antimicrob. Agents 33, 587-590, 2009; cited from earlier work.

Turning to cuprous oxide [Cu2O], the phage concentration result with Qβ phage (NBRC 20012) (Example 4: Cu2O immobilized on glass with TEOS binder, 0.24 g/m^2, contact 30 minutes, FIG. 5) was “markedly decreased”; with phage [1] (contact for 4 hours, dark place, 13% humidity), “below the detection limit”; in the assay with phage [1] (light irradiation for 1 hour at 40% humidity) it was “below the detection limit”; in the assay on phages (in 1/500 NB medium, after about 24 hours, dark place), “below the detection limit”; with phages (in 1/500 NB medium, after about 24 hours, irradiation of white light (WL)), “below the detection limit”; in the assay on phages (phages added again, sampled after about 24 hours) it was “below the detection limit”. Besides, the phage inactivation effect entry in the assay with Qβ phage (NBRC 20012) (in the dark place (Dark)) is recorded as “observed”; with Qβ phage (NBRC 20012) (under light irradiation (WL, white light), 800 luxes), “observed”. The virus inactivation action result in the assay with phage [2] (carried Cu2O 0.24 g/m^2, sample containing 0.1% of gelatin, FIG. 10) is recorded as “promptly exhibited”; with phage [2] (carried Cu2O decreased to 1/10, sample not containing gelatin), “achieved at a comparable level”. For the same substance, in the assay with phages (operation repeated further 5 times), the inactivation effect result was “observed after each of 5 times of the operation”. In assay [3], the “antibacterial activity (MBC)” value was “inferior to that of divalent copper compound (CuO) or metallic copper (Cu), and remarkably weaker than that of silver (Ag)”.
